From PubChem BioAssay AID624297 (National Center for Advancing Translational Sciences (NCATS), 2012)
Only a part is listed here, and it is no random draw. Records with an inconclusive call do not appear. Entries that show only a call come without a potency. The source made the active and inactive calls. The call rests on the fitted dose curve; in most records, active means well fitted activation curve with a large enough effect; inconclusive means small, poorly fitted or top-dose-only effect; inactive means no such curve, though single readings can be large or run the other way.

experiment: A quantitative high throughput screen for small molecules that induce DNA re-replication in SW480 colon adenocarcinoma cells.; further: nearly all actives have a fitted effect of over 55% in size; conditions: Hoechst DNA content imaging, 48 h; series mostly up to 46.1 µM
Potency means the concentration at half of the fitted maximal effect.

| SMILES | Potency | re-replication activation |
| --- | --- | --- |
| Cc1cccc(C)c1OP(C)(=O)Nc1ccc(SC(F)(F)F)cc1 (centres undefined) | inactive | – |
| CP(=O)(Nc1ccc(SC(F)(F)F)cc1)Oc1ccc(Cl)cc1 (centres undefined) | inactive | – |
| CP(=O)(Oc1ccccc1)OC(c1ccccc1)C(F)(F)F (centres undefined) | inactive | – |
| CCc1ccc(OP(C)(=O)N2CCN(c3ccc([N+](=O)[O-])cc3)CC2)cc1 (centres undefined) | inactive | – |
| CP(=O)(NC(=O)Nc1ccccc1)Oc1ccccc1 (centres undefined) | inactive | – |
| Cc1cc(C)cc(OP(C)(=O)Nc2ccc(SC(F)(F)F)cc2)c1 (centres undefined) | inactive | – |
| CC(C)(C)c1ccc(OP(C)(=O)O)cc1 | inactive | – |
| COc1ccccc1OP(C)(=O)Nc1ccccc1Br (centres undefined) | inactive | – |
| N#[O+].[C-]#N.[C-]#N.[C-]#N.[C-]#N.[C-]#N.[Fe+2].[Na+].[Na+] | inactive | – |
| CCN(CC)CC(O)COC(=O)C(O)(c1ccccc1)C1CCCCC1 (centres undefined) | inactive | – |
| COc1ccc(OP(C)(=O)Nc2ccc(Br)cc2)cc1 (centres undefined) | inactive | – |
| CP(=O)(Oc1ccccc1)N1CCOC1=O (centres undefined) | inactive | – |
| CCc1ccc(OP(C)(=O)Nc2cccnc2)cc1 (centres undefined) | inactive | – |
| COc1ccccc1OP(C)(=O)Nc1c(C)n(C)n(-c2ccccc2)c1=O (centres undefined) | inactive | – |
| OCCSCCO | inactive | – |
| O=C(OCCCN1CCCC1)C(O)(c1ccccc1)C1CCCCC1 (centres undefined) | – | inactive: -0.528% [at 9.22 µM] |
| C/C1=C2N=C(/C=C3N=C(/C(C)=C4\[N-][C@@](C)([C@H]5N=C1[C@@](C)(CCC(=O)NC[C@H](C)OP(=O)([O-])O[C@@H]1[C@H](O)[C@H](n6cnc7cc(C)c(C)cc76)O[C@@H]1CO)[C@@H]5CC(N)=O)[C@](C)(CC(N)=O)[C@H]4CCC(N)=O)[C@@](C)(CC(N)=O)[C@@H]\3CCC(N)=O)C(C)(C)[C@@H]/2CCC(N)=O.[C-]#N.[Co+3] | inactive | – |
| CC(C)OP(=O)(F)OC(C)C | inactive | – |
| Nc1ccc2c(ccc3cccnc32)n1.O=[N+]([O-])c1cc([N+](=O)[O-])c(O)c([N+](=O)[O-])c1 | inactive | – |
| CP(=O)(OC12CC3CC(CC(C3)C1)C2)OC12CC3CC(CC(C3)C1)C2 | inactive | – |
| CCOC(=O)c1ccc(NP(C)(=O)Oc2ccc(Cl)cc2)cc1 (centres undefined) | inactive | – |
| CP(=O)(OCCOc1ccccc1)OCCOc1ccccc1 | inactive | – |
| CP(=O)(Nc1ccc(Cl)cc1Cl)Oc1ccccc1 (centres undefined) | inactive | – |
| Cc1cc(C)cc(OP(C)(=O)Nc2cccc(C(F)(F)F)c2)c1 (centres undefined) | inactive | – |
| COc1ccc(OP(C)(=O)Nc2ccccc2Br)cc1 (centres undefined) | inactive | – |

| SMILES | Potency | re-replication activation |
| --- | --- | --- |
| COc1ccccc1OP(C)(=O)Nc1ccc(C)c(C)c1 (centres undefined) | inactive | – |
| Cc1c(NP(C)(=O)Oc2ccc(C(C)C)cc2)c(=O)n(-c2ccccc2)n1C (centres undefined) | inactive | – |
| CCc1ccc(OP(C)(=O)O)cc1 | inactive | – |
| CP(=O)(Nc1ccccn1)Oc1ccccc1 (centres undefined) | inactive | – |
| COc1ccccc1OP(C)(=O)Nc1ccc(C)cc1C (centres undefined) | inactive | – |
| COc1ccccc1OP(C)(=O)Nc1ccc(Br)cc1 (centres undefined) | inactive | – |
| CN(C)CCOC(=O)C(O)(c1ccccc1)C1CCCC1 (centres undefined) | inactive | – |
| COc1ccc(OP(C)(=O)Nc2ccccn2)cc1 (centres undefined) | inactive | – |
| O=C(OCCN1CCN(CCOCc2ccccc2)CC1)C(O)(c1ccccc1)c1ccccc1 | inactive | – |
| CC(C)c1ccc(OP(C)(=O)Nc2ccc(SC(F)(F)F)cc2)cc1 (centres undefined) | inactive | – |
| CCN(CC)CCCOC(=O)C(O)(c1ccccc1)C1CCCCC1 (centres undefined) | inactive | – |
| Cc1c([N+](=O)[O-])cc([N+](=O)[O-])c(Br)c1[N+](=O)[O-] | inactive | – |
| CCCCCOc1ccc(NP(C)(=O)Oc2ccc(Cl)cc2Cl)cc1 (centres undefined) | inactive | – |
| CP(=O)(Nc1ccccc1)Oc1ccc(F)cc1 (centres undefined) | inactive | – |
| COc1ccc(OP(C)(=O)Nc2ccc(SC(F)(F)F)cc2)cc1 (centres undefined) | inactive | – |
| CCOC(=O)c1ccc(NP(C)(=O)Oc2ccc(F)cc2)cc1 (centres undefined) | active: 6.51 µM | – |
| O=[N+]([O-])c1ccc(OP2(=O)COCCO2)cc1 (centres undefined) | inactive | – |
| Cc1c(C(c2ccc3c(c2)OCO3)c2c(C)n(C)n(-c3ccccc3)c2=O)c(=O)n(-c2ccccc2)n1C.O=[N+]([O-])c1cc([N+](=O)[O-])c(O)c([N+](=O)[O-])c1 | inactive | – |
| COc1ccc(OP(C)(=O)Nc2cccc(Br)c2)cc1 (centres undefined) | inactive | – |
| CN(C)CCOC(=O)C(O)(c1ccccc1)C1CCCCC1 (centres undefined) | inactive | – |
| CP(=O)(Nc1ccc2c(c1)OCCO2)Oc1ccccc1 (centres undefined) | inactive | – |
| Cc1ccccc1NP(C)(=O)Nc1ccccc1C | inactive | – |
| CP(=O)(Nc1ccc(SC(F)(F)F)cc1)Oc1ccc(F)cc1 (centres undefined) | inactive | – |
| CCOP(C)(=S)SCC(=O)NC(C)(CC)C(=O)O (centres undefined) | inactive | – |
